# Laboratory results published in patent US8962608B2, “Cycloalkylnitrile pyrazole carboxamides as janus kinase inhibitors” (Merck Sharp & Dohme Corp., priority 2011, dated 2015).
# Chains of the proteins cited; added tags and fusions are not shown. Residues count along the entry.
# UniProt P23458, 875-1153: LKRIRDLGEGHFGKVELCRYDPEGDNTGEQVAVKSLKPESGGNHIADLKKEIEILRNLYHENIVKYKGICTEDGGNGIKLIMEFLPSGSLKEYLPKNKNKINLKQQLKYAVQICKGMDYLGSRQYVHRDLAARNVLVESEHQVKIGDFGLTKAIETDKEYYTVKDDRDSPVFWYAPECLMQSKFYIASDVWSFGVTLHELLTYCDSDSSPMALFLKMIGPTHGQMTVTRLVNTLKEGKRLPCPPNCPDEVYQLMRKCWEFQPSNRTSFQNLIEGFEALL
# UniProt O60674, 849-1124: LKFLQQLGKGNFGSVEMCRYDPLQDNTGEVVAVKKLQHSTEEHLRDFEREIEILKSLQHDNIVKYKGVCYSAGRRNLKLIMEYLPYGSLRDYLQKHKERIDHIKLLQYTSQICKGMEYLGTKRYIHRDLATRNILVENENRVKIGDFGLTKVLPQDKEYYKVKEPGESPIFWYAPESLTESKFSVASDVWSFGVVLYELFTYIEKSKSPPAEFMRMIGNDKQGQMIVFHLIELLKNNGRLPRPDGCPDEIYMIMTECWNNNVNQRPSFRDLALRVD
# Columns and labels:
# [1] = molecular target: T1, JAK1 (recombinant purified GST-tagged catalytic domain) (Homo sapiens (Human), UniProt P23458);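 further: biochemical assay with HTRF read-out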
# [2] = molecular target: T2, JAK2 (recombinant purified GST-tagged catalytic domain) (Homo sapiens (Human), UniProt O60674);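 further: biochemical JAK kinase assay with HTRF detection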
# [3] = molecular target: T2, JAK2 (recombinant purified GST-tagged catalytic domain); experiment: biochemical
# [4] = molecular target: T1, JAK1 (recombinant purified GST-tagged catalytic domain); experiment: biochemical
SMILES,IC50 [1],IC50 [2],IC50 [3],IC50 [4]
"N#C[C@H]1CCCC[C@@H]1n1cc(C(N)=O)c(Nc2ccc(S(=O)(=O)C(F)(F)F)cc2)n1 (single isomer, unassigned) [Example 43-2, 1-[(1S,2S or 1R,2R)-2-cyanocyclohexyl]-3-({4-[(trifluoromethyl)sulfonyl]phenyl}amino)-1H-pyrazole-4-carboxamide]",1 nM,,,
"CC(O)(c1ccc(Nc2nn([C@H]3CCCC[C@@H]3C#N)cc2C(N)=O)cn1)C(F)F (single isomer, unassigned) [Example 17-40, 1-[(1S,2S or 1R,2R)-2-cyanocyclohexyl]-3-({6-[(1R or 1S)-2,2-difluoro-1-hydroxy-1-methylethyl]pyridin-3-yl}amino)-1H-pyrazole-4-carboxamide]",,5 nM,,
"N#C[C@H]1C[C@@H](N2CC3(COC3)C2)CC[C@@H]1n1cc(C(N)=O)c(Nc2ccc(C(F)(F)F)cc2)n1 (single isomer, unassigned) [Example 28-120, 1-[(1S,2S,4S or 1R,2R,4R )-2-cyano-4-(2-oxa-6-azaspiro[3.3]hept-6-yl)cyclohexyl]-3-{[4-(trifluoromethyl)phenyl]amino}-1H-pyrazole-4-carboxamide]",0.95 nM,,,
N#C[C@H]1C[C@@H](O)CC[C@@H]1n1cc(C(N)=O)c(Nc2ccc(OC(F)F)nc2)n1 [Example 33-22],2 nM,,,
"N#C[C@H]1CCCCC1n1cc(C(N)=O)c(Nc2ccc(F)cc2)n1 (mixture of isomers) [Example 17-18, 1-[(1S,2S and 1R,2R)-2-cyanocyclohexyl]-3-[(4-fluorophenyl)amino]-1H-pyrazole-4-carboxamide]",,,22 nM,3 nM
"N#C[C@H]1C[C@@H](N2CCC2)CC[C@@H]1n1cc(C(N)=O)c(Nc2ccnc(F)c2)n1 (single isomer, unassigned) [Example 28-110, 1-[(1S,2S,4S or 11R,2R,4R)-4-azetidin-1-yl-2-cyanocyclohexyl]-3-[(2-fluoropyridin-4-yl)amino]-1H-pyrazole-4-carboxamide]",,,37 nM,2 nM
"N#C[C@H]1C[C@H](N2CCC2)CC[C@@H]1n1cc(C(N)=O)c(Nc2ccc(C(F)(F)F)nc2)n1 (single isomer, unassigned) [Example 28-33, 1-[(1S,2S,4R or 1R,2R,4S)-4-azetidin-1-yl-2-cyanocyclohexyl]-3-{[6-(trifluoromethyl)pyridin-3-yl]amino}-1H-pyrazole-4-carboxamide]",,,180 nM,8 nM
"CC(C)(NC1CCC(n2cc(C(N)=O)c(Nc3ccc(Cl)cc3)n2)[C@@H](C#N)C1)C1CC1 (single isomer, unassigned) [Example 28-208, 3-[(4-chlorophenyl)amino]-1-{(1S,2S or 1R,2R)-2-cyano-4-[(1-cyclopropyl-1-methylethyl)amino]cyclohexyl}-1H-pyrazole-4-carboxamide]",,,17 nM,0.15 nM
"N#C[C@@H]1CCCC[C@@H]1n1cc(C(N)=O)c(Nc2ccc(F)cc2)n1 (racemic) [Example 17-15, 1-[(1S,2R and 1R,2S)-2-cyanocyclohexyl]-3-[(4-fluorophenyl)amino]-1H-pyrazole-4-carboxamide]",,,76 nM,20 nM
"CC(C)(O)C1CN([C@@H]2CCC(n3cc(C(N)=O)c(Nc4ccc(Cl)cc4)n3)[C@@H](C#N)C2)C1 (single isomer, unassigned) [Example 28-212, 3-[(4-chlorophenyl)amino]-1-{(1S,2S,4R or 1R,2R,4S)-2-cyano-4-[3-(1-hydroxy-1-methylethyl)azetidin-1-yl]cyclohexyl}-1H-pyrazole-4-carboxamide]",,,36 nM,0.6 nM
"N#C[C@H]1C[C@@H](NCC(F)F)CC[C@@H]1n1cc(C(N)=O)c(Nc2ccc(F)c(Cl)c2)n1 (single isomer, unassigned) [Example 28-63, 3-[(3-chloro-4-fluorophenyl)amino]-1-{(1S,2S,4S or 1R,2R,4R)-2-cyano-4-[(2,2-difluoroethyl)amino]cyclohexyl}-1H-pyrazole-4-carboxamide]",,,41 nM,4 nM
"CC1CN([C@H]2CC[C@H](n3cc(C(N)=O)c(Nc4ccc(S(=O)(=O)C(F)(F)F)cc4)n3)[C@@H](C#N)C2)C1 (single isomer, unassigned) [Example 28-186, 1-[(1S,2S,4S or 1R,2R,4R)-2-cyano-4-(3-methylazetidin-1-yl)cyclohexyl]-3-({4-[(trifluoromethyl)sulfonyl]phen-yl}amino)-1H-pyrazole-4-carboxamide]",,,9 nM,0.15 nM
"N#C[C@H]1C[C@@H](N2CCC2)CC[C@@H]1n1cc(C(N)=O)c(Nc2ccc(C(F)(F)F)nc2)n1 (single isomer, unassigned) [Example 28-11, 1-[(1S,2S,4S or 1R,2R,4R)-4-azetidin-1-yl-2-cyanocyclohexyl]-3-{[6-(trifluoromethyl)pyridin-3-yl]amino}-1H-pyrazole-4-carboxamide]",,,75 nM,6 nM
"C[C@@](O)(c1ccc(Nc2nn([C@H]3CC[C@H](O)C[C@@H]3C#N)cc2C(N)=O)cc1)C(F)(F)F (single isomer, unassigned) [Example 33-13, 1-[(1S,2S,4S or 1R,2R,4R)-2-cyano-4-hydroxycyclohexyl]-3-({4-[(1R or 1S)-2,2,2-trifluoro-1-hydroxy-1-methylethyl]phenyl}amino)-1H-pyrazole-4-carboxamide]",,,0.95 nM,0.2 nM
"CC1(C)CN([C@@H]2CC[C@H](n3cc(C(N)=O)c(Nc4ccc([C@](C)(O)C(F)(F)F)cc4)n3)[C@@H](C#N)C2)C1 (single isomer, unassigned) [Example 28-45, 1-[(1S,2S,4R or 1R,2R,4S)-2-cyano-4-(3,3-dimethylazetidin-1-yl)cyclohexyl]-3-({4-[(1S or 1R)-2,2,2-trifluoro-1-hydroxy-1-methylethyl]phenyl}amino)-1H-pyrazole-4-carboxamide]",,,24 nM,0.2 nM

# Where two headings read alike, the source gives them in different places.
